In general, inhibition refers to the percentage by which the read-out fell short of the control.

The assay concerns the target T1, binding between p34 protein and NEDD4-1 protein (Homo sapiens, UniProt P46934+Q9UHV2).
T1 construct: FLAG or 6xHis (known only from the detection antibodies)
T1 sequence (P46934 1-1319): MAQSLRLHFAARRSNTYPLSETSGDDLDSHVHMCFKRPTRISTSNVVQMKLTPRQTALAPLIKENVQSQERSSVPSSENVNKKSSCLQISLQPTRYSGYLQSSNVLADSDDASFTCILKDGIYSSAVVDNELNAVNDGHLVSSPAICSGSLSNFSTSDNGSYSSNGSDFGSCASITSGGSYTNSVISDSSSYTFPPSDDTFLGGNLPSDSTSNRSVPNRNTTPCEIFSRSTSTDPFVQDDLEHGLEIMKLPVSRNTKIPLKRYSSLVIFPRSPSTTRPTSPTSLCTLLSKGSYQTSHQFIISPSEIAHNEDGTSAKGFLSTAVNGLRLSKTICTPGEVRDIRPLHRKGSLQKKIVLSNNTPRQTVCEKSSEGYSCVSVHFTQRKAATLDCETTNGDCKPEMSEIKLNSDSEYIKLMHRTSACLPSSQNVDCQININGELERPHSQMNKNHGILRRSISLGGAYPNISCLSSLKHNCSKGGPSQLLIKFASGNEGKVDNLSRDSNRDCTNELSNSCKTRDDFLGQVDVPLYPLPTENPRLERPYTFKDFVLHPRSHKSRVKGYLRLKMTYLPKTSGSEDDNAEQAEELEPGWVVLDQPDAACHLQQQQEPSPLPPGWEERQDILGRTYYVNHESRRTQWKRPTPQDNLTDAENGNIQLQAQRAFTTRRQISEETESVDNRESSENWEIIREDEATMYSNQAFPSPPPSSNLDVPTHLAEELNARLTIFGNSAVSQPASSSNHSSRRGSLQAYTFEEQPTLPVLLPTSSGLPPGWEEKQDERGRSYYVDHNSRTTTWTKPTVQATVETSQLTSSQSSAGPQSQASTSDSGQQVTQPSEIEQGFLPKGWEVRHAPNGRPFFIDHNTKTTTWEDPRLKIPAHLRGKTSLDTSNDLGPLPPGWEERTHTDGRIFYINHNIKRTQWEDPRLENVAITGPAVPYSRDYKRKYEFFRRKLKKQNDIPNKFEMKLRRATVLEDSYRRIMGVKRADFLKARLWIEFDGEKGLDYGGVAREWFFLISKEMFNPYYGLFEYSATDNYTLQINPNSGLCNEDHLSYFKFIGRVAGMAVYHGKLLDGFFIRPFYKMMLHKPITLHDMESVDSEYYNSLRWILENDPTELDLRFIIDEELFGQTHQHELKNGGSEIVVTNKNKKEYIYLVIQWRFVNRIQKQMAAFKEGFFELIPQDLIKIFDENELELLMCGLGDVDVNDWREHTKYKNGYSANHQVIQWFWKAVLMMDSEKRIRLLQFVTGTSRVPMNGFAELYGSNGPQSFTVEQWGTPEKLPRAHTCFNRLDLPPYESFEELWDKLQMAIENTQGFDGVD
T1 sequence (Q9UHV2 1-236): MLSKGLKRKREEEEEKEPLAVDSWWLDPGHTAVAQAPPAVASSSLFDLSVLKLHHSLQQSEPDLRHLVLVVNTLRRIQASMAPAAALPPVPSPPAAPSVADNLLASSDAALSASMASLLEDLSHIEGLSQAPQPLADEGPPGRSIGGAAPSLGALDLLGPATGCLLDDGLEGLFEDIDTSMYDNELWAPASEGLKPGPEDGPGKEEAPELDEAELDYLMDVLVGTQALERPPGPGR
In words: Inhibitory activity on binding between p34 and NEDD4-1, FRET (HTRF) assay. Conditions: pH 7.4, compound 10 μM; 1×PBS pH 7.4, 0.1% BSA, 2% DMSO; 384-well. Here is the method: Inhibitory activity of the compound on binding between p34 and NEDD4-1 was evaluated using p34 protein and NEDD4-1 protein based on the HTRF technology developed by Cisbio. In this assay, a fluorescence resonance energy transfer (FRET) signal was measured in the presence of terbium-labeled anti-FLAG antibody and d2-labeled anti-6XHis antibody. Experiments were performed in 384-well plates under a condition of 1×PBS pH 7.4, 0.1% BSA, and 2% DMSO. A background signal was measured in the absence of the p34-NEDD4-1 proteins, and a non-inhibiting signal was measured with addition of only a solvent (2% DMSO). Then, the compound to be evaluated was applied to give a final concentration of 10 μM. Subsequently, inhibitory activity of the compound on p34-NEDD4-1 was calculated in %.

In turn, `O=C(NCc1nc2cc(F)c(F)cc2[nH]1)N1CCN(Cc2c[nH]c3ccc(Cl)cc23)CC1` [Example 62, 4-((5-Chloro-1H-indol-3-yl)methyl)-N-((5,6-difluoro-1H-benzo[d]imidazol-2-yl)methyl)piperazine-1-carboxamide] came in with an inhibition at 10 µM of 30.2%.

The values above are taken from patent publication US20200339537A1, “NOVEL COMPOUND AS INHIBITOR AGAINST BINDING OF PF34 PROTEIN TO NEDD4-1 PROTEIN AND USE THEREOF” (ENHANCEDBIO INC., priority 2017, published 2020).
